This passage reports IC50 results from patent US9527849B2, “Salt and polymorph of pyrazolopyrimidinone compound, and pharmaceutical composition containing the same, preparation method and use thereof” (TOPHARMAN SHANGHAI CO., LTD., priority 2011, dated 2016).

Amino acid sequences for entries named in this document (tags omitted). A change or cut given only in a name is not applied to a line headed by its entry.
UniProt O00408, whole entry: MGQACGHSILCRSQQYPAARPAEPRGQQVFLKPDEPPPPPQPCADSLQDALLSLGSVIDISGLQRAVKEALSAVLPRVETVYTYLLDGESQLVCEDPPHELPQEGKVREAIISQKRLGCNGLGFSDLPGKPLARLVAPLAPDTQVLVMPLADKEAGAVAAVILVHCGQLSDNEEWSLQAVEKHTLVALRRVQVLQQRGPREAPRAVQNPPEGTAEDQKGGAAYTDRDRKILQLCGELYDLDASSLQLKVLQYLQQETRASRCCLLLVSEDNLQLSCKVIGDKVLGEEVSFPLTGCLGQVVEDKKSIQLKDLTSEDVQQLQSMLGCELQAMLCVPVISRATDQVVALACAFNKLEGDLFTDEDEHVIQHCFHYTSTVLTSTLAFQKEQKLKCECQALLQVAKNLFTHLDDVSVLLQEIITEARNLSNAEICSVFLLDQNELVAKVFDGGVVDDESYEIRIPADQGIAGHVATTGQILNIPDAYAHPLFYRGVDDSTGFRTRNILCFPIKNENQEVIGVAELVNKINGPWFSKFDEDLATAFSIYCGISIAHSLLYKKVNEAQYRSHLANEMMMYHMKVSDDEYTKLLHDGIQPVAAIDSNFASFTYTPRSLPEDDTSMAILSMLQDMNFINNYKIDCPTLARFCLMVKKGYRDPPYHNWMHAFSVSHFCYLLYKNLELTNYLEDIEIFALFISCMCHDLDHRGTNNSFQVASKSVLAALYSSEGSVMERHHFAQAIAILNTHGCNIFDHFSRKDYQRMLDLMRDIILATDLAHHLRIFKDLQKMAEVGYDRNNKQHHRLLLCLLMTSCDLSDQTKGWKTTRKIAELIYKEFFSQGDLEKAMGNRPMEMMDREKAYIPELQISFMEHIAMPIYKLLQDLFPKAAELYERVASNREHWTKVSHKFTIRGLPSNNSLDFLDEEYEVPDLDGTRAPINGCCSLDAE
UniProt O76083: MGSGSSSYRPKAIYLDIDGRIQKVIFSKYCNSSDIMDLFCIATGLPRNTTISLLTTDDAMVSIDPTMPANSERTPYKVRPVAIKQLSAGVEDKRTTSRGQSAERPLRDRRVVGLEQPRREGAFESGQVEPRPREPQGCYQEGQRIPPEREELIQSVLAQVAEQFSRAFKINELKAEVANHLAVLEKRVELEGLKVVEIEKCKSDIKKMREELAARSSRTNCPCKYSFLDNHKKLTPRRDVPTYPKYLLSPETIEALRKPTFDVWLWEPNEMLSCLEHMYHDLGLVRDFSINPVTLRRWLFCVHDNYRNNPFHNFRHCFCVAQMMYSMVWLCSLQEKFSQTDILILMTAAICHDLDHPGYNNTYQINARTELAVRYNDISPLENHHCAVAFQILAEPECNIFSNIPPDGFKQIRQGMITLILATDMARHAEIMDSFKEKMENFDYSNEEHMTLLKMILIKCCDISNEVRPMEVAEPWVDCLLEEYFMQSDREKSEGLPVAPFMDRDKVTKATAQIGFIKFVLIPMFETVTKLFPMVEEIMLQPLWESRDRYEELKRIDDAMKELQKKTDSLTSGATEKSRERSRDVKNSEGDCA

Where only a bound is given, the exact number is not on record here.

For one experiment, the target named is PDE2 (Homo sapiens, UniProt O00408). Briefly: In vitro activity against PDE isoenzyme. The experiment is classed as biochemical.
The target of a further experiment is PDE9 (Homo sapiens, UniProt O76083). Briefly: In vitro activity against PDE isoenzyme. Type of experiment: biochemical.

Take `CCCc1nn(C)c2c(=O)[nH]c(-c3cc(S(=O)(=O)N4CCN(C)CC4)ccc3OCC)nc12` [Sildenafil, reference compound]: the IC50 at PDE2 was 6.84 µM; against PDE9, greater than 100 µM.

What is called IC50 is the concentration that gives 50% inhibition. A high value points to weaker potency.
